One compound from PMC3251870 (British Journal of Cancer, 2011) can be followed below.

Amino acid sequences for entries named in this document (tags omitted).
UniProt Q13547, whole entry, species assumed: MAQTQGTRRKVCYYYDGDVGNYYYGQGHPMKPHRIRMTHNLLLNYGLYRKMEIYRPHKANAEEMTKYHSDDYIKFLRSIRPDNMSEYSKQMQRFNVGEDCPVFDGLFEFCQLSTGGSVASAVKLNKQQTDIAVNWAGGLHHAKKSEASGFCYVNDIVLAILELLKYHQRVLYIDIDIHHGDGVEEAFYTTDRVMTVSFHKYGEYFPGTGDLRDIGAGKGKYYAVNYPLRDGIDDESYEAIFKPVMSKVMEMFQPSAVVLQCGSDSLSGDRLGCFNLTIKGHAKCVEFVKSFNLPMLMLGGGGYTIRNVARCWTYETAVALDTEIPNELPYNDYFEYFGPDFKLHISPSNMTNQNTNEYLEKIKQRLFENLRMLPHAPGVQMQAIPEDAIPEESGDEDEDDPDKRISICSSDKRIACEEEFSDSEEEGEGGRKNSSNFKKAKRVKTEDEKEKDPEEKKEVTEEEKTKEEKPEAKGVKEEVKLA

In test [1] the target is purified recombinant HDAC1 (Homo sapiens, UniProt Q13547). The following applies: 400 nM.
For test [2], the target named is T1, purified recombinant HDAC8 (Homo sapiens, UniProt Q9BY41).
T1 sequence (Q9BY41 1-377): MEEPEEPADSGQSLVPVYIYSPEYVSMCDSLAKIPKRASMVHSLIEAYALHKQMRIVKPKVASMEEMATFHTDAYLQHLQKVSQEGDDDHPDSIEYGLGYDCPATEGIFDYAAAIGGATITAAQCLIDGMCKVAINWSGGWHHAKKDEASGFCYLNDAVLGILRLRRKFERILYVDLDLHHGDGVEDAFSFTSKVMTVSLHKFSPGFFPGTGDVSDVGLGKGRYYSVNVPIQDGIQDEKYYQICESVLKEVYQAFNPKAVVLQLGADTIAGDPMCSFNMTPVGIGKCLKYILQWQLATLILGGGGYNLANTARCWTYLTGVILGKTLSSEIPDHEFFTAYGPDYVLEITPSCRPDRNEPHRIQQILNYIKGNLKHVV

The structures appear in SMILES notation. Where two headings read alike, the source gives them in different places.

Regarding `CC(/C=C/C(=O)NO)=C\[C@@H](C)C(=O)c1ccc(N(C)C)cc1` [TSA, trichostatin A], the “inhibition of HDAC1 activity” value in test [1] is recorded as “fully inhibited”. Besides, the “inhibition of HDAC8 activity” value in test [2] (400 nM) is reported as “only partly inhibited”; in test [2] (5 μM) it was “fully eliminated its activity”.
